Reference: ChEMBL document CHEMBL1131897

By UniProt entry, the sequences of proteins in these tests, tags left out.
UniProt P41143, whole entry, looked up: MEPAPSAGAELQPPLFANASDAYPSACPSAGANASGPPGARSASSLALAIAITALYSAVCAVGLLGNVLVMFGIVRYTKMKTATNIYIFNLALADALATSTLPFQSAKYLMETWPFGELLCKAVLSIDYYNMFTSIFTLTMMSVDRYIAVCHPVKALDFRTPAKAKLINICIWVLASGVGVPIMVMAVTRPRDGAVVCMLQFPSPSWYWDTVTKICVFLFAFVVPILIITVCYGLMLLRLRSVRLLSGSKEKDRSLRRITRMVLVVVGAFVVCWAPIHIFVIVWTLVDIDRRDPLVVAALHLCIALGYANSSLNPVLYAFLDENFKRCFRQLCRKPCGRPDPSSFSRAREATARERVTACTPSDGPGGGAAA

Target: Delta-type opioid receptor (Homo sapiens) (UniProt P41143)
Test: [35S]GTP-gamma-S, induced maximal stimulation ( E max ) Delta opioid receptor in guinea pig caudate membranes blocked with 20 nM NTI
Conditions: Cavia porcellus

Work on `CN(C(=O)Cc1ccccc1)[C@H]1CC[C@@]2(CCCO2)C[C@@H]1N1CCCC1` yielded an Emax of 178 nM.
